# Measurements from patent US9629921B2, “Smart pro-drugs of serine protease inhibitors” (Trustees of Tufts College, priority 2002, dated 2017).
# Chains of the proteins cited; added tags and fusions are not shown.
# UniProt P27487, whole entry, species assumed: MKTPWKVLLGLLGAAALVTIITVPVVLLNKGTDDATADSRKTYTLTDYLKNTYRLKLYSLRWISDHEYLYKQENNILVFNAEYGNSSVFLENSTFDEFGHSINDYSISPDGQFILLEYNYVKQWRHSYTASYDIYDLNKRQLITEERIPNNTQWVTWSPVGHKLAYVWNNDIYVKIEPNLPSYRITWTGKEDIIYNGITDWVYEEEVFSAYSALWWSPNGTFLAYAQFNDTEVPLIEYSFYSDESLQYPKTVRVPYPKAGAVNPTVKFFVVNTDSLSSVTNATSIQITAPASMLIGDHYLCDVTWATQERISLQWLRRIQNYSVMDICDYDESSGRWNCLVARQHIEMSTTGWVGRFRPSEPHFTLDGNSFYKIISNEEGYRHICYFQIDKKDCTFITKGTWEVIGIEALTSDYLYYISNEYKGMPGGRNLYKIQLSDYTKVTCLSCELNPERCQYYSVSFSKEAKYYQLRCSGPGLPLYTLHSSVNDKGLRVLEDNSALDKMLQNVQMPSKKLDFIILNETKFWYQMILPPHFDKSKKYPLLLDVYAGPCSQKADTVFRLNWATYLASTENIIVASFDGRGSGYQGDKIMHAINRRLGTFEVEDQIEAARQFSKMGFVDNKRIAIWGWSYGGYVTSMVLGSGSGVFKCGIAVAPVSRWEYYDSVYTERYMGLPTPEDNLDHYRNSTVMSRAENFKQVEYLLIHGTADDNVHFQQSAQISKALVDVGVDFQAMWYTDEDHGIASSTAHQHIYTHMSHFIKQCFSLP
# Molecular target: DPP IV (Homo sapiens, UniProt P27487)
# Assay: In vitro DPP IV enzyme inhibition assay; inhibitors incubated at pH 2 or pH 8, then added to enzyme assay solution at pH 8.0
# Format: biochemical
# Details: pre-incubated at low pH vs high pH (FIG. 3, FIG. 64, Table 1)
# Protocol: Inhibitors were incubated overnight in pH 2 or pH 8 solutions and then added directly to an enzyme assay solution at pH 8.0.
# It is important to note that the x-axis in FIG. 3 refers to the concentration of the SPI, not the concentration of the released Xaa-boroPro.
structure (smiles),measurement,value
CC(C)[C@H](N)C(=O)N1CCC[C@H]1B(O)O [Val-boroPro],pH dependence of DPP IV inhibition,more effective as inhibitors of DPP IV when pre-incubated at low pH than at high pH
